“And” between values parts separate entries of the source, which are not always exact repeats. Identical values can stand only once. Some compounds may have been tested in ways that are not shown here.
Experiments:
Liver microsomes [1] = experiment: Half life in human liver microsomes; format: ADME, Microsome
Cytochrome P450 2D6 = Cytochrome P450 2D6 (Homo sapiens, UniProt P10635); experiment: Inhibition of CYP2D6; format: ADME
[2] = Inhibition of tetrodotoxin-sensitive sodium channel
[3] = target: Voltage-gated inwardly rectifying potassium channel KCNH2 (Homo sapiens, UniProt Q12809); experiment: Displacement of [3H]dofetilide from human ERG
Plasma = experiment: Protein binding in dog plasma
Hepatocyte = experiment: Half life in human hepatocytes; details: Liver
[4] = Half life in dog liver microsomes
[5] = Binding affinity to sodium channel site 2
[6] = Dissociation constant, pKa of the compound
[7] = Binding affinity to L-type calcium channel DHP binding site
[8] = Binding affinity to L-type calcium channel verapamil binding site
Liver microsomes [9] = experiment: Half life in human liver microsomes in presence of recombinant CYP2D6
Liver microsomes [10] = experiment: Half life in human liver microsomes in presence of recombinant CYP3A4
Liver microsomes [11] = experiment: Half life in human liver microsomes in presence of recombinant CYP2C19
Caco-2 [12] = experiment: Apparent permeability from apical to basolateral side of human Caco-2 cells
Caco-2 [13] = experiment: Apparent permeability from basolateral to apical side of human Caco-2 cells
Liver microsomes [14] = experiment: Metabolic stability in human liver microsomes in presence of recombinant CYP2D6
Liver microsomes [15] = experiment: Metabolic stability in human liver microsomes in presence of recombinant CYP3A4
Liver microsomes [16] = experiment: Metabolic stability in human liver microsomes in presence of recombinant CYP2C19
Canis familiaris [17] = experiment: Elimination half life in dog at 0.0075 mg/kg, iv; details: in vivo
Canis familiaris [18] = experiment: Volume of distribution in dog at 0.0075 mg/kg, iv; details: in vivo
[19] = Lipophilicity, log D at pH 7.4; details: buffer
[20] = target: 5-hydroxytryptamine receptor 7 (Homo sapiens, UniProt P34969); experiment: Binding affinity to 5HT7 receptor
[21] = Binding affinity to sigma receptor

Chains of the proteins cited; added tags and fusions are not shown.
UniProt P10635, whole entry: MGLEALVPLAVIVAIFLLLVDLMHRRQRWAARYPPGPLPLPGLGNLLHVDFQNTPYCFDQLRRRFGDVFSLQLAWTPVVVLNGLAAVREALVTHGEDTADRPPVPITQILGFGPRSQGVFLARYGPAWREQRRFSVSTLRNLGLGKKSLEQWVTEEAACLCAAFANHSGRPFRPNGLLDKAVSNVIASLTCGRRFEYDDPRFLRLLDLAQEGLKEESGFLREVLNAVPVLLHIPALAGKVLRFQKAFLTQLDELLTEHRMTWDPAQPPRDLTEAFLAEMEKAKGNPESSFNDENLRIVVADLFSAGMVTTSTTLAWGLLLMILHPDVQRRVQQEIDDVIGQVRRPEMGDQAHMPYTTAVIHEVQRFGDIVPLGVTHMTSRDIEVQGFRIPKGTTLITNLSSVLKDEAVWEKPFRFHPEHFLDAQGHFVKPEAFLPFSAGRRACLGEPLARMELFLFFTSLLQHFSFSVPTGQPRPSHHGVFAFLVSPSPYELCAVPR
UniProt Q12809, whole entry: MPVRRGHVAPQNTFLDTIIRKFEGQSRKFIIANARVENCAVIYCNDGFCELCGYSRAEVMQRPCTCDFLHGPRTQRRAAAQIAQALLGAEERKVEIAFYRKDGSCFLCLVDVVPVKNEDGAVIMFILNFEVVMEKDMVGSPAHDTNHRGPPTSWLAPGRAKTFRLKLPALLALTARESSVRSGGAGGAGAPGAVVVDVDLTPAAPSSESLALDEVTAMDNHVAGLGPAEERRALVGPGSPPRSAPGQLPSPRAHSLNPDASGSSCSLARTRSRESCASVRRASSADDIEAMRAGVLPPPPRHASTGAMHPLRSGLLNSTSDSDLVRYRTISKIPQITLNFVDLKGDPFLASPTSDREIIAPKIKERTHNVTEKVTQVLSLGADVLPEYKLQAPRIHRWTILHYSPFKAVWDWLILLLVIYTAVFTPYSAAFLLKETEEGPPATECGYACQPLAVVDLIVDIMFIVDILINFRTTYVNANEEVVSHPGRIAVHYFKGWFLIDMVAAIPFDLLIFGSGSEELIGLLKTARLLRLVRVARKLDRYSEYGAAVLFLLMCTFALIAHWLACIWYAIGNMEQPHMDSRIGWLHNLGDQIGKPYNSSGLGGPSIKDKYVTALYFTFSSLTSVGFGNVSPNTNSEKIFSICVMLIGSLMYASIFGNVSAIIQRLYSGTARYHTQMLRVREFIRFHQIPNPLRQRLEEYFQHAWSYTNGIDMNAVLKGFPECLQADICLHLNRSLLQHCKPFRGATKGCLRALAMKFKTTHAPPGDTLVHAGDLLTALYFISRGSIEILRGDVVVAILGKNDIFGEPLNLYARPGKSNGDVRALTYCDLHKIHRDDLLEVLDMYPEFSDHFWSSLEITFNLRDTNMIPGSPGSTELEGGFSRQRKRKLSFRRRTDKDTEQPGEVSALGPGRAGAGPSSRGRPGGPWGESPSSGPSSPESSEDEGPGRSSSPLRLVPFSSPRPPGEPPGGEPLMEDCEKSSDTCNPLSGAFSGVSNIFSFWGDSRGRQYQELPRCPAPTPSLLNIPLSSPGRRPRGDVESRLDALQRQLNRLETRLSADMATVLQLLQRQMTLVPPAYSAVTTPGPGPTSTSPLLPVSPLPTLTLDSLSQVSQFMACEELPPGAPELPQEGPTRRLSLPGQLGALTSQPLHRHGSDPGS
UniProt P34969, whole entry: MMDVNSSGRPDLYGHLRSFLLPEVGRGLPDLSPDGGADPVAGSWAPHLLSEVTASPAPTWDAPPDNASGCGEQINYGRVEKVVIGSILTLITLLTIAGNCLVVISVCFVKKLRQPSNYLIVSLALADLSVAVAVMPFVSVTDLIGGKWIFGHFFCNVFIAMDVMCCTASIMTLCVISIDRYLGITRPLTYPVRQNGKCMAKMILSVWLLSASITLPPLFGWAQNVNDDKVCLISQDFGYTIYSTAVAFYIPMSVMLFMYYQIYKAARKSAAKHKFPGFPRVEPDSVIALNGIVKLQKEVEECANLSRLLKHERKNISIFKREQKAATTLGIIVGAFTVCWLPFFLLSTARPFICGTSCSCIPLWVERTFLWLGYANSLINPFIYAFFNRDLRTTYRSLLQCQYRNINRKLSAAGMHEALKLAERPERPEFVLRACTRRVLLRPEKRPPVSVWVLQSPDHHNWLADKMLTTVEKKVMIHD

FC(F)(F)Oc1ccccc1CC(c1ccccc1)N1CCNCC1 (centres undefined)
t1/2 (Liver microsomes [1]): 1.82 h
IC50 (Cytochrome P450 2D6): 3.6 µM
IC50 [2]: 2.1 µM
IC50 [3]: 10.9 µM

Fc1cccc(C(Cc2ccccc2OC(F)F)N2CCNCC2)c1 (centres undefined)
t1/2 (Liver microsomes [1]): 1.95 h
IC50 [2]: 15.2 µM
IC50 [3]: 8.24 µM

COc1c(F)cccc1CC(c1ccccc1)N1CCNCC1 (centres undefined)
t1/2 (Liver microsomes [1]): > 2 h
IC50 (Cytochrome P450 2D6): > 30 µM
IC50 [2]: 3.81 µM
IC50 [3]: 20.8 µM

CC(C)Oc1ccccc1CC(c1ccccc1)N1CCNCC1 (centres undefined)
t1/2 (Liver microsomes [1]): 0.767 h
IC50 [3]: 6.37 µM

CCCOc1ccccc1CC(c1ccccc1)N1CCNCC1 (centres undefined)
t1/2 (Liver microsomes [1]): 0.767 h
IC50 [3]: 5.84 µM

COc1ccccc1CC(c1cccc(F)c1)N1CCNCC1 (centres undefined)
t1/2 (Liver microsomes [1]): > 2 h
IC50 [2]: 4.54 µM
IC50 [3]: > 22.5 µM

CCOc1ccccc1C[C@H](c1ccccc1)N1CCNCC1
t1/2 (Liver microsomes [1]): 1.17 h
IC50 [2]: 0.79 µM
IC50 [3]: 6.95 µM
PPB (Plasma): 90%
t1/2 (Hepatocyte): 1.33 h
t1/2 [4]: 0.0667 h
IC50 [5]: 0.45 µM
pKa [6]: 4
IC50 [7]: > 10 µM
IC50 [8]: 5.01 µM
t1/2 (Liver microsomes [9]): 2 min
t1/2 (Liver microsomes [10]): 0.333 h
t1/2 (Liver microsomes [11]): 1 h
Papp (Caco-2 [12]): 330 nm/s
Papp (Caco-2 [13]): 360 nm/s
Stability (Liver microsomes [14]): 44%
Stability (Liver microsomes [15]): 29%
Stability (Liver microsomes [16]): 21%

Fc1ccc(C(Cc2ccccc2OC(F)F)N2CCNCC2)cc1 (centres undefined)
t1/2 (Liver microsomes [1]): 1.53 h
IC50 [2]: 3.66 µM
IC50 [3]: 9.12 µM

Fc1ccccc1C(Cc1ccccc1OC(F)(F)F)N1CCNCC1 (centres undefined)
t1/2 (Liver microsomes [1]): > 2 h and 1.82 h
IC50 [2]: 3.27 µM and 1.41 µM

Oc1ccccc1C[C@H](c1ccccc1)N1CCNCC1
IC50 (Cytochrome P450 2D6): > 30 µM
IC50 [2]: 11.5 µM
IC50 [3]: > 10 µM

Fc1cccc(C(Cc2ccccc2OC(F)(F)F)N2CCNCC2)c1 (centres undefined)
t1/2 (Liver microsomes [1]): > 2 h
IC50 [2]: 3.99 µM

FC(F)Oc1ccccc1CC(c1ccccc1)N1CCNCC1 (centres undefined)
IC50 (Cytochrome P450 2D6): 30 µM and 3 µM and 4.9 µM
IC50 [2]: 4.7 µM and 2.97 µM and 4.89 µM
IC50 [3]: 10.7 µM and 12.7 µM and 15.3 µM
t1/2 [4]: 1.05 h

Fc1ccccc1C(Cc1ccccc1OC(F)F)N1CCNCC1 (centres undefined)
t1/2 (Liver microsomes [1]): 1.52 h
IC50 [2]: 3.37 µM

c1ccc(C(Cc2ccccc2OCC2CC2)N2CCNCC2)cc1 (centres undefined)
t1/2 (Liver microsomes [1]): 1.4 h

Fc1ccc(C(Cc2ccccc2OC(F)(F)F)N2CCNCC2)cc1 (centres undefined)
t1/2 (Liver microsomes [1]): > 2 h and 1.35 h
IC50 (Cytochrome P450 2D6): 1.4 µM and 3.6 µM
IC50 [2]: 3.14 µM and 2.96 µM and 1.42 µM
IC50 [3]: 8.05 µM and 9.64 µM and 4.95 µM
PPB (Plasma): 96.5%
t1/2 [4]: 0.283 h
beta t1/2 (Canis familiaris [17]): 6 h
Vd (Canis familiaris [18]): 7 L/kg

COc1ccccc1CC(c1ccc(F)cc1)N1CCNCC1 (centres undefined)
t1/2 (Liver microsomes [1]): > 2 h
IC50 (Cytochrome P450 2D6): 12.1 µM
IC50 [2]: 4.83 µM
IC50 [3]: 16 µM

COc1ccccc1CC(c1ccccc1F)N1CCNCC1 (centres undefined)
t1/2 (Liver microsomes [1]): > 2 h
IC50 (Cytochrome P450 2D6): 17.7 µM
IC50 [2]: 3.84 µM
IC50 [3]: 40.1 µM

COc1ccccc1CC(c1ccccc1)N1CCNCC1 (centres undefined)
t1/2 (Liver microsomes [1]): > 2 h
IC50 [2]: 8.74 µM and 4.47 µM and 5.4 µM
logD [19]: 1
t1/2 (Hepatocyte): 2.12 h
Ki [20]: 0.84 µM
t1/2 [4]: 0.1 h
Ki [21]: 0.29 µM
IC50 [5]: 2.2 µM
IC50 [7]: > 10 µM
IC50 [8]: 5.9 µM

From ChEMBL document CHEMBL1155538 (Bioorg Med Chem Lett, 2010)
